## Ab-14 heavy chain CDR variants: yeast mating affinities

Reference: Li et al. 2023, doi:10.1038/s41467-023-39022-2. File: FLAb, binding data.

Target: peptide PDVDLGDISGINAS, taken from heptad repeat 2 (HR2) of SARS-CoV-2 spike.

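Phage display of a naive human antibody library on the peptide gave the parent. These sequences belong to a second round, designed from the earlier measurements on random variants of the parent. Group labels follow the data file (Ctrl: baseline library sampled from a position-specific scoring matrix, with some repeated check sequences; En: ensemble of fine-tuned language models; GP: Gaussian process model; GPLM: also part of the Gaussian process libraries; HC: hill climbing; Gen: genetic algorithm; Gibbs: Gibbs sampling; a sequence that several methods proposed may carry one label only). The assay is AlphaSeq: two haploid yeast populations carry antibody and antigen on their surface. After mating in shaken culture at 30 °C for 16 h, diploids were selected and their barcode pairs sequenced. Scores were corrected for input abundance and mapped to Kd with protein pairs of known affinity run in the same pool. There are six technical replicates.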

Parent scFv Ab-14: VH joined to VL by the linker GGGGSGGGGSGGGGS. Changes lie in the heavy chain CDRs alone.
VH: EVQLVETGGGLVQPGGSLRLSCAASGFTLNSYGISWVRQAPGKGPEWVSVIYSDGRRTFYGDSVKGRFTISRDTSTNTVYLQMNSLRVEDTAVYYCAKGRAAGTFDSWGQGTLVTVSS
VL: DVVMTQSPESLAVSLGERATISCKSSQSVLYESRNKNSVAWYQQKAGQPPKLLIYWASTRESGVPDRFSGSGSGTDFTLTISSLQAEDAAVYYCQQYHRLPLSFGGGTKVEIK

The whole VH of each variant is written out. Kd is apparent (estimated from mating counts) and averaged on the log scale over replicates with a signal. Smaller is tighter. An entry "no signal" has no value in the source: the pair was not observed among the diploids in any replicate. This suggests poor binding but is not conclusive. The authors averaged sequences with at least three values out of six and counted those with two or fewer as poor binders.

| VH | group | apparent Kd | seen in | signal with controls |
|---|---|---|---|---|
| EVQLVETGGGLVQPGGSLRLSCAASGFTLNSYGISWVRQAPGKGPEWVSVIYSDGIRTFYSDSVKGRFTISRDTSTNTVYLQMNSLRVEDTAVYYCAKGRAAGTFDQWGQGTLVTVSS | Ctrl | 11 nM | 6/6 | 0/18 |
| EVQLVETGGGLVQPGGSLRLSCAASGFRLNSYGISWVRQAPGKGPEWVSVIYSDGRRTFYFDQVKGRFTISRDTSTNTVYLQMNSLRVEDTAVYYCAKGRAAGTFDSWGQGTLVTVSS | Ctrl | no signal | 0/6 | 0/18 |
| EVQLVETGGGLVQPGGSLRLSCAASGFDLNEYGISWVRQAPGKGPEWVSVIYADGMRTAYADNVKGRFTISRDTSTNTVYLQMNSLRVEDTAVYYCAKGEVAGTFDVWGQGTLVTVSS | En_Gen | 33 pM | 6/6 | 0/18 |
| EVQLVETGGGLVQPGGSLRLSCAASGFSLNSYGISWVRQAPGKGPEWVSVIYSDGRRTFYGDSVKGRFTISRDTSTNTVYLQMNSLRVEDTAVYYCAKGLEAGTFDSWGQGTLVTVSS | GPLM_Gibbs | 3.8 nM | 6/6 | 0/18 |
| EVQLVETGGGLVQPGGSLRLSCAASGFDLESYGISWVRQAPGKGPEWVSVIYADGRRTFYADSVKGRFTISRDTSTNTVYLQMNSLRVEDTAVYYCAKGENAGTFDIWGQGTLVTVSS | En_HC | 2.8 nM | 3/6 | 0/18 |
| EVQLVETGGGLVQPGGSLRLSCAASGFTLNEYGISWVRQAPGKGPEWVSVIYSDGMRTFYGDAVKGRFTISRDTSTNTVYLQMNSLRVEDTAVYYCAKGRTAGTFDSWGQGTLVTVSS | GP_Gibbs | 2.5 nM | 6/6 | 0/18 |
| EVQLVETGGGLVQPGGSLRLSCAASGFWLNDYGISWVRQAPGKGPEWVSVIYSDGRRTFYGDSVKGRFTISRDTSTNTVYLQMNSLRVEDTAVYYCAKGRTAGTFDTWGQGTLVTVSS | GPLM_Gen | 12 nM | 6/6 | 0/18 |
| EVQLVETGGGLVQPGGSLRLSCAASGFSLDEYGISWVRQAPGKGPEWVSVIYADGMRAAYQPSVKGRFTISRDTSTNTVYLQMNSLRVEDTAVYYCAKGFTGFVVAIWGQGTLVTVSS | En_Gibbs | no signal | 0/6 | 0/18 |
| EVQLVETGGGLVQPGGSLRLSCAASGFTLNDYGISWVRQAPGKGPEWVSVIYSDGRRTFYSDSVKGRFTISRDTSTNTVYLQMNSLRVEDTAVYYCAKGQDAGTFDSWGQGTLVTVSS | GP_HC | 71 nM | 6/6 | 1/18 |
| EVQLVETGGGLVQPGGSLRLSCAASGFDLNSYGISWVRQAPGKGPEWVSVIYSDGRRTFYKDSVKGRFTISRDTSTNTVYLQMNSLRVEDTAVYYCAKGSAAGTFDSWGQGTLVTVSS | GP_Gen | 640 pM | 6/6 | 0/18 |
| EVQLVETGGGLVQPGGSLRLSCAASGFDLNEYGISWVRQAPGKGPEWVSVIYADGKRTAYADNVKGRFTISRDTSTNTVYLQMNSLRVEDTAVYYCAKGQNAGTFDVWGQGTLVTVSS | En_Gen | 810 pM | 6/6 | 0/18 |
| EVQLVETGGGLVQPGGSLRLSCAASGEQLDEYGISWVRQAPGKGPEWVSVIYADGRRQYYANSVKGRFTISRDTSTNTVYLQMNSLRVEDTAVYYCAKGDSADVFDLWGQGTLVTVSS | En_Gibbs | 23 µM | 1/6 | 1/18 |
| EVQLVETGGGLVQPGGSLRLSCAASGFDLDEYGISWVRQAPGKGPEWVSVIYADGRRTFYIDSVKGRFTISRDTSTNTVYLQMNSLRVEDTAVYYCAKGETAGTFDAWGQGTLVTVSS | En_HC | 430 pM | 6/6 | 1/18 |
| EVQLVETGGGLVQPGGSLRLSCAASGFTLNEYGISWVRQAPGKGPEWVSVIYSDGRRTFYGDSVKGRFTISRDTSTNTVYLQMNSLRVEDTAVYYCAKGQAAGTFDLWGQGTLVTVSS | GPLM_Gen | 470 pM | 6/6 | 0/18 |
| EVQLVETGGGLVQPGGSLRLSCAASPFDLNSYGISWVRQAPGKGPEWVSVIYSDGRRTAYGDSVKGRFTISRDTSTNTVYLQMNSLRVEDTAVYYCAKGRTAGTFDSWGQGTLVTVSS | GP_Gibbs | 960 pM | 6/6 | 0/18 |
| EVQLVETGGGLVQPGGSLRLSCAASGFDLDEYGISWVRQAPGKGPEWVSVIYADGRRTVYADSVKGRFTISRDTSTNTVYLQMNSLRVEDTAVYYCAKGENAGTFDVWGQGTLVTVSS | En_Gen | 86 pM | 3/6 | 0/18 |
| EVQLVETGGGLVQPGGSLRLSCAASFKIGEDYGISWVRQAPGKGPEWVSVIYADGLRTAYENSVKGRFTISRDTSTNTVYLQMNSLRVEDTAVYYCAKGDVAGTFDLWGQGTLVTVSS | En_Gibbs | 86 nM | 6/6 | 0/18 |

Top 2 of the variants detected in all replicates, tightest first:

VH,group,apparent Kd,seen in,signal with controls
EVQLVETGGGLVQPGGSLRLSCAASGFDLNEYGISWVRQAPGKGPEWVSVIYADGMRTAYADNVKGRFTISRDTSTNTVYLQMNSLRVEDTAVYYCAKGEVAGTFDVWGQGTLVTVSS,En_Gen,33 pM,6/6,0/18
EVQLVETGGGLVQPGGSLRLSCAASGFDLDEYGISWVRQAPGKGPEWVSVIYADGRRTFYIDSVKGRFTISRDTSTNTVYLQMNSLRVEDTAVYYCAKGETAGTFDAWGQGTLVTVSS,En_HC,430 pM,6/6,1/18

As a blank, each scFv also met three strains without target: over all heavy chain designs, 1% of these pairings were detected, typically at 120 nM and seldom below 7.0 nM. Also given: how often the same scFv was detected with the empty control strains. A sequence measured in both rounds can read differently, since the two assays cover different ranges.